# Reference: ChEMBL document CHEMBL1157575, “Antitumor agents. 272. Structure-activity relationships and in vivo selective anti-breast cancer activity of novel neo-tanshinlactone analogues” (J Med Chem, 2010)
# Organism: Homo sapiens
# Assay: Selectivity for ED50 for human SK-BR-3 to ED50 for human MCF7
# Format: functional
row,Structure (SMILES),Ratio ED50
1,CCCc1cccc2c1ccc1c3occ(C)c3c(=O)oc21,10
2,COc1cccc2c1ccc1c3occ(C)c3c(=O)oc21,10
3,CCOc1cccc2c1ccc1c3occ(C)c3c(=O)oc21,10
4,Cc1coc2c1c(=O)oc1c3cccc(C(C)C)c3ccc21,10
